The numbers were not newly measured in patent US20230117831A1, “MULTI-FUNCTIONAL CHIMERIC MOLECULES” (THE BROAD INSTITUTE, INC., priority 2020, published 2023), which cites them from elsewhere.

Protein sequences, listed by entry. Tags and fused reporters are not part of them.
UniProt Q99683, whole entry, species assumed: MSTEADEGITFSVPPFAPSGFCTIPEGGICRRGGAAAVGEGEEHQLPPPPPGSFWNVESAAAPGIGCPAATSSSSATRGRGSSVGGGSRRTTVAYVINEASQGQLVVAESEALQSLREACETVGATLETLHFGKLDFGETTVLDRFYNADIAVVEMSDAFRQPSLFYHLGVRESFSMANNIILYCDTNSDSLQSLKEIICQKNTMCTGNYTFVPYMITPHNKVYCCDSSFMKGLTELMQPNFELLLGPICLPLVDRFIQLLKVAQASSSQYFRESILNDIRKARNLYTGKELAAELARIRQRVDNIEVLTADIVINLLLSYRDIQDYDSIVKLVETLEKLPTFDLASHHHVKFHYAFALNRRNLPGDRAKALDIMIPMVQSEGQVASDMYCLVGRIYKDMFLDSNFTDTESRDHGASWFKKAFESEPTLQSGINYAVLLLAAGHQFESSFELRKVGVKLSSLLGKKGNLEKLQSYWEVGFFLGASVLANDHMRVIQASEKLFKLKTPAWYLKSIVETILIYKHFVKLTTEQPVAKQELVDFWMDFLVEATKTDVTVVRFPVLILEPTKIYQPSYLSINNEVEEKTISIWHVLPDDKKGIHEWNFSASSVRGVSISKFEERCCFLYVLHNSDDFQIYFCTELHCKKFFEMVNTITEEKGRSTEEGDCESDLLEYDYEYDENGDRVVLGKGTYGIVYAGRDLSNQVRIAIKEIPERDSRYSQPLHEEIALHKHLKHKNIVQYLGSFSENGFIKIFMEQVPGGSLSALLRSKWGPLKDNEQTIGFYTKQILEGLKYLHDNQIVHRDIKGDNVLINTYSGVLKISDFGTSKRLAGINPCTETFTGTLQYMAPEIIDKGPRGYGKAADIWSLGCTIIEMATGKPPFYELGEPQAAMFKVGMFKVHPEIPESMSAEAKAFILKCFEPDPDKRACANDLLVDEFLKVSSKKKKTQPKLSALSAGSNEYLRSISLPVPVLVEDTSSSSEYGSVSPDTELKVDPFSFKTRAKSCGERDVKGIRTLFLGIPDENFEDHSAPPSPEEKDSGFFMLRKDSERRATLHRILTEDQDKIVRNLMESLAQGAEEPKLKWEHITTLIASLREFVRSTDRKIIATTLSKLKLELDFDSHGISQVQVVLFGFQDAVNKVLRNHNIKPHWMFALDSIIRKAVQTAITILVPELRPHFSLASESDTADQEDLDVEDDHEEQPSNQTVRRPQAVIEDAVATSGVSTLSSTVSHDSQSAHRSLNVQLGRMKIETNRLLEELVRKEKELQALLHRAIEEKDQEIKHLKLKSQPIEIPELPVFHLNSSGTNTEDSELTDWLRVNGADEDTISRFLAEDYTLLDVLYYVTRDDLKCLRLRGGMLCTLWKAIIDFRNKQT

Structures are written as SMILES.

The target in this data set is MAP3K5 (Homo sapiens, UniProt Q99683). The note with it: cited from earlier work.

Turning to `CN[C@@H]1C[C@H]2O[C@@](C)([C@@H]1OC)n1c3ccccc3c3c4c(c5c6ccccc6n2c5c31)C(=O)NC4` [Staurosporine], the ka is 445000 M⁻¹ s⁻¹.
